Assays:
rat NPRA = molecular target: T1, rat NPRA (Rattus norvegicus, UniProt P18910); assay: Rat NPRA cGMP activity assay (HTRF) in HEK293 cells overexpressing NPRA; format: cell-based; conditions: cGMP Assay (EC50, pM) w/Casein rNPRA, assay buffer with 0.1% casein
T1 construct: Full-Length cDNA Cloning and Generation of Cell Lines Overexpressing Natriuretic Peptide Receptors (NPRs); expressed in transfected cells; host or cells: Jump-in T-Rex HEK293 cells, pJTI R4 CMV-TO MCS pA vector, tetracycline induction
T1 sequence (P18910 29-1057): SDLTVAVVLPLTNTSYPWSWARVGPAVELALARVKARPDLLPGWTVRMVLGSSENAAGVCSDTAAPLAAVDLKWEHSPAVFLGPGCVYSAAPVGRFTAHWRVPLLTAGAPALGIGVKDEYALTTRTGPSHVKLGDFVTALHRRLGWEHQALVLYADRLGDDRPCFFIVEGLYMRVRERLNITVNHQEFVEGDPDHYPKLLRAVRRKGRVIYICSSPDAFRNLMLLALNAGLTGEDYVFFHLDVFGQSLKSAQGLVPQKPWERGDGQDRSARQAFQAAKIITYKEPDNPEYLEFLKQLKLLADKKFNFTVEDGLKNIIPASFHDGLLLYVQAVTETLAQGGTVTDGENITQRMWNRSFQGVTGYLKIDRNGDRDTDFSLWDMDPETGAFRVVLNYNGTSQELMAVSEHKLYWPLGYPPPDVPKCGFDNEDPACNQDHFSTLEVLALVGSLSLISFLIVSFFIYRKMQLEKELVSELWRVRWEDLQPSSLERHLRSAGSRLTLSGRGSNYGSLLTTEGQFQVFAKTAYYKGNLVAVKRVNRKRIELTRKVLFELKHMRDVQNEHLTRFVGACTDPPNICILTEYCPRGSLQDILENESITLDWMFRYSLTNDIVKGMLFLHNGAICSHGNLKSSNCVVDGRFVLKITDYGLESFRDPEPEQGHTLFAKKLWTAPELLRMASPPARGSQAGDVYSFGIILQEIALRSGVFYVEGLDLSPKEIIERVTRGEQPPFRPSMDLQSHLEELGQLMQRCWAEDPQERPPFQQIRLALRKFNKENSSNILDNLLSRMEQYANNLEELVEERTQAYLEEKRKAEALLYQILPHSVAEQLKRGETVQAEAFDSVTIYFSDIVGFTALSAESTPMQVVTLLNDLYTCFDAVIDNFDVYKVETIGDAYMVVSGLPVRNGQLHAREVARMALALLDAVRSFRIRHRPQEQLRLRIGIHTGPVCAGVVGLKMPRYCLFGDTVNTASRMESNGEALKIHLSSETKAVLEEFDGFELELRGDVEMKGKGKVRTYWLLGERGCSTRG
Method: All sequences were verified by full-length sequencing performed by ACGT DNA Sequencing Services (Wheeling, IL). The target cDNA was cloned into pJTI R4 CMV-TO MCS pA vector and then co-transfected with pJT1R4 Int vector into Jump-in™ T-Rex™ HEK293 cells for mammalian inducible expression using Jump-in™ T-Rex™ HEK293 kit and Lipofectamine LTX and Plus Reagent following manufacturer's protocols, as briefly described below.
Jump-in™ T-Rex™ HEK293 cells were plated in a BioCOAT® poly-D-lysine coated 6-well plate (Becton Dickinson, cat no. 354413) at 1 million cells/well in 2 mL culture medium and incubated for 18 h at 37° C. and 5% CO2 to 50-70% confluence. A cDNA mix was made in a 50 mL tube by adding 1.5 μg target cDNA, 1.5 μg pJT1R4 Int vector, 3 μL Plus Reagent, and 300 μL Opti-MEM I sequentially into the tube. A reagent mix was made in a separate 50 mL tube by adding 7.5 μL Lipofectamine LTX into 300 μL Opti-MEM I. The mixtures were incubated for 5 min at room temperature. The cDNA mix was then transferred into the reagent mix, mixed well, and incubated for additional 30 min at room temperature. A 500 μL of cDNA/Lipofectamine complex was then transferred to the wells of the cell plate in which the culture medium was changed to 2 mL of transfection medium containing DMEM with 4.5 g/L D-glucose supplemented with 10% FBS-HI and 20 mM HEPES. Transfected cells were cultured for 48 h in an incubator at 37° C. and 5% CO2. A subclone or pool from each overexpressing cell line was maintained in culture medium with the addition of 2 mg/mL G418 sulfate for the clone selection based on its built-in resistance to G418 sulfate for at least 3 weeks with medium changed every 2-3 days.
NPRs were overexpressed in T-Rex™ HEK293 cells following the induction with 300 ng/mL tetracycline in culture medium for 48 h. Induced cell lines in an exponential growth phase were treated with 0.05% trypsin-EDTA for a few seconds at room temperature, harvested in cell medium containing FBS to neutralize the trypsin, counted, and cryopreserved at the density of 2 million cells/mL in cell preservation solution containing FBS-HI with 5% DMSO. Cryopreserved cells were stored at −80° C. for a few days prior to transferring to a liquid nitrogen tank. Induced cell lines were then used for suspension assays to measure the activity of polypeptides to stimulate cGMP production in cGMP assays or for the preparation of cell membranes to measure the binding activity of polypeptides in competitive radioligand binding assays, as described below.
Test polypeptides were added starting at 10 μM concentration and at 10-fold decreasing concentrations to obtain 8-point concentration-response curves (i.e., 10 μM to 1 pM). The quantity of cGMP generated was detected using HTRF® technology and normalized to maximum amount produced by 100 nM amidated rat ANP and the minimum amount produced by assay buffer. Detailed steps are outlined below.
Stock solutions of test polypeptides (2 mM) dissolved in DMSO were first diluted 100-fold in assay buffer containing HBSS with Ca^2+ and Mg^2+, 5 mM HEPES, 0.5 mM IBMX, and 0.1% BSA or 0.1% casein (pH 7.4). The polypeptides were further serially diluted in 1:10 dilution steps in assay buffer containing 0.1% BSA or 0.1% casein to generate 8-point 2× working stock solutions ranging from 20 μM to […].
A 10 μL cell suspension containing 4000 cells was plated in Costar® half-area white opaque 96-well plates (Corning, cat no. 3693). Then 10 μL of assay buffer (basal activity), 200 nM of amidated rat ANP (maximum activity) or 2× working stock solutions of test polypeptides were transferred into the plate. Final concentration of DMSO in each well was 0.5%. The plate was shaken for 15 sec and then incubated for 40 min at room temperature.
The cGMP generated was measured using cGMP kit following the manufacturer's directions, as described below.

human NPRA = molecular target: T2, human NPRA (Homo sapiens, UniProt P16066); assay: Human NPRA cGMP activity assay (HTRF) in HEK293 cells overexpressing NPRA; format: cell-based; conditions: cGMP Assay (EC50, pM) w/Casein hNPRA, assay buffer with 0.1% casein
T2 construct: Full-Length cDNA Cloning and Generation of Cell Lines Overexpressing Natriuretic Peptide Receptors (NPRs); expressed in transfected cells; host or cells: Jump-in T-Rex HEK293 cells, pJTI R4 CMV-TO MCS pA vector, tetracycline induction
T2 sequence (P16066 33-1061): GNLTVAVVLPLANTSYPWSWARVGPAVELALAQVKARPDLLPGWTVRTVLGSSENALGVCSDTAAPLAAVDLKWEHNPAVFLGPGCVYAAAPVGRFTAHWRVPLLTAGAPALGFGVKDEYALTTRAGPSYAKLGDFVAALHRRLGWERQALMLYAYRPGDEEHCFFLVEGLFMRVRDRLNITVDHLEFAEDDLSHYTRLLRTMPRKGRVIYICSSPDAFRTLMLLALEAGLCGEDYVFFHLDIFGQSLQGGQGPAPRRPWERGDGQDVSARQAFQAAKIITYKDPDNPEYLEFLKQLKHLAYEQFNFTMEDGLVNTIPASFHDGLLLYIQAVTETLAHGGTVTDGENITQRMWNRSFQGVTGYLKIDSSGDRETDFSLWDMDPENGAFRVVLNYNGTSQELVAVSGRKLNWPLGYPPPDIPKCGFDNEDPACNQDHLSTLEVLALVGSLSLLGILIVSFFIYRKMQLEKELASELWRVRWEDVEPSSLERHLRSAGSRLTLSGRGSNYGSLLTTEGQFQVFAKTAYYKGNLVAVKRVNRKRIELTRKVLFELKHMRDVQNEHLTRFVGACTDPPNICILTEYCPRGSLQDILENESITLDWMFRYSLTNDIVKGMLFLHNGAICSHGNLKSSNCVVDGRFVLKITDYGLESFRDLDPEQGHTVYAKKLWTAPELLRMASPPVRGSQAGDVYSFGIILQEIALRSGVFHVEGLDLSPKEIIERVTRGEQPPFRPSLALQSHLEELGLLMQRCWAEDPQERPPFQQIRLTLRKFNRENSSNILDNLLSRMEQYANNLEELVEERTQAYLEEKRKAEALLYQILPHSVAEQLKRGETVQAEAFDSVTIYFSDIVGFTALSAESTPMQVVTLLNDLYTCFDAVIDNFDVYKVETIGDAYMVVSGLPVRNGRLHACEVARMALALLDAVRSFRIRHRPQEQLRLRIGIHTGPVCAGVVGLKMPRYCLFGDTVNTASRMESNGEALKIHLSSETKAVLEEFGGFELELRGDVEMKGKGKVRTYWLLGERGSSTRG
How it was run: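 Tetracycline-induced (300 ng/mL, 48 h) T-Rex HEK293 cells expressing NPRA, 4000 cells/well, treated 40 min at room temperature with polypeptide (8 points, 10 μM to 1 pM) in HBSS/HEPES buffer with 0.5 mM IBMX, pH 7.4. cGMP by HTRF, normalised to 100 nM amidated rat ANP and buffer.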

| SMILES | EC50 (rat NPRA) | EC50 (human NPRA) |
| --- | --- | --- |
| CC[C@H](C)[C@@H]1NC(=O)[C@H](CCCNC(=N)N)NC(=O)[C@H](CC(=O)O)NC(=O)[C@H]([C@@H](C)CC)NC(=O)[C@H](CCCNC(=N)N)NC(=O)CNC(=O)CNC(=O)[C@H](Cc2ccccc2)NC(=O)[C@@H](NC(=O)[C@H](CO)NC(=O)[C@H](CO)NC(=O)[C@H](CCCNC(=N)N)NC(=O)[C@@H]2CCCN2C(=O)[C@H](CCCCN)NC(=O)[C@H](CCC(=O)O)NC(=O)CNC(=O)[C@H](CCCCN)NC(=O)[C@H](CCC(=O)O)NC(=O)[C@H](CCCCN)NC(=O)[C@H](CCC(=O)O)NC(=O)[C@H](CCCCN)NC(=O)[C@H](CCC(=O)O)NC(=O)CC[C@H](NC(=O)CCCCCCCCCCCCCCCCCCC(=O)O)C(=O)O)CSCSC[C@@H](C(=O)N2CCC[C@H]2C(=O)N[C@@H](CO)C(=O)N[C@@H](Cc2ccccc2)C(=O)N[C@@H](CCCNC(=N)N)C(=O)N[C@@H](Cc2c[nH]cn2)C(=O)NCC(=O)NCC(=O)N2CCC[C@H]2C(=O)N[C@@H](CO)C(=O)N[C@@H](CO)C(=O)NCC(=O)N[C@@H](C)C(=O)N2CCC[C@H]2C(=O)N2CCC[C@H]2C(=O)N2CCC[C@H]2C(=O)N[C@@H](CO)C(N)=O)NC(=O)CNC(=O)[C@H](CC(C)C)NC(=O)CNC(=O)[C@H](CO)NC(=O)[C@H](Cc2ccc(O)cc2)NC(=O)[C@H](Cc2c[nH]cn2)NC(=O)CNC1=O [Example 57] | 9500 pM |  |
| CC[C@H](C)[C@@H]1NC(=O)[C@H](CCCNC(=N)N)NC(=O)[C@H](CC(=O)O)NC(=O)[C@H]([C@@H](C)CC)NC(=O)[C@H](CCCNC(=N)N)NC(=O)CNC(=O)CNC(=O)[C@H](Cc2ccccc2)NC(=O)[C@@H](NC(=O)[C@H](CO)NC(=O)[C@H](CO)NC(=O)[C@H](CCCNC(=N)N)NC(=O)CCNC(=O)[C@H](CCCCN)NC(=O)[C@H](CO)NC(=O)CNC(=O)[C@H](CCCCN)NC(=O)[C@H](CCC(=O)O)NC(=O)[C@H](CCCCN)NC(=O)[C@H](CCC(=O)O)NC(=O)[C@H](CCCCN)NC(=O)[C@H](CCC(=O)O)NC(=O)CC[C@H](NC(=O)CCCCCCCCCCCCCCCCCCC(=O)O)C(=O)O)CSCSC[C@@H](C(=O)N2CCC[C@H]2C(=O)N[C@@H](CO)C(=O)N[C@@H](Cc2ccccc2)C(=O)N[C@@H](CCCNC(=N)N)C(=O)N[C@@H](Cc2c[nH]cn2)C(=O)NCC(=O)NCC(=O)N2CCC[C@H]2C(=O)N[C@@H](CO)C(=O)N[C@@H](CO)C(=O)NCC(=O)N[C@@H](C)C(=O)N2CCC[C@H]2C(=O)N2CCC[C@H]2C(=O)N2CCC[C@H]2C(=O)N[C@@H](CO)C(N)=O)NC(=O)CNC(=O)[C@H](CC(C)C)NC(=O)CNC(=O)[C@H](CO)NC(=O)[C@H](Cc2ccc(O)cc2)NC(=O)[C@H](Cc2c[nH]cn2)NC(=O)CNC1=O [Example 65] | 7410 pM | 614 pM |
| CC[C@H](C)[C@@H]1NC(=O)[C@H](CCCNC(=N)N)NC(=O)[C@H](CC(=O)O)NC(=O)[C@H]([C@@H](C)CC)NC(=O)[C@H](CCCNC(=N)N)NC(=O)[C@H](CCCCN)NC(=O)CNC(=O)[C@H](Cc2ccccc2)NC(=O)[C@@H](NC(=O)[C@H](CO)NC(=O)[C@H](CO)NC(=O)[C@H](CCCNC(=N)N)NC(=O)[C@@H]2CCCN2C(=O)[C@H](CCCCN)NC(=O)[C@H](CCC(=O)O)NC(=O)CNC(=O)[C@H](CCCCN)NC(=O)[C@H](CCC(=O)O)NC(=O)[C@H](CCCCN)NC(=O)[C@H](CCC(=O)O)NC(=O)[C@H](CCCCN)NC(=O)[C@H](CCC(=O)O)NC(=O)CC[C@H](NC(=O)CCCCCCCCCCCCCCCCCCC(=O)O)C(=O)O)CSCSC[C@@H](C(=O)N2CCC[C@H]2C(=O)N[C@@H](CO)C(=O)N[C@@H](Cc2ccccc2)C(=O)N[C@@H](CCCNC(=N)N)C(=O)N[C@@H](Cc2c[nH]cn2)C(=O)NCC(=O)N[C@@H](CO)C(=O)N2CCC[C@H]2C(=O)N[C@@H](CO)C(=O)N[C@@H](CO)C(=O)NCC(=O)N[C@@H](C)C(=O)N2CCC[C@H]2C(=O)N2CCC[C@H]2C(=O)N2CCC[C@H]2C(=O)N[C@@H](CO)C(N)=O)NC(=O)CNC(=O)[C@H](CC(C)C)NC(=O)CNC(=O)[C@H](CO)NC(=O)[C@H](CCC(N)=O)NC(=O)[C@H](CCCN)NC(=O)CNC1=O [Example 134] | 192000 pM |  |
